Data published in patent US20250361239A1, “PROTEIN DEGRADERS AND USES THEREOF” (ZHUHAI YUFAN BIOTECHNOLOGIES CO., LTD., priority 2022, published 2025).

The chains behind the UniProt entries cited, without tags or fusion partners.
UniProt P15170, whole entry: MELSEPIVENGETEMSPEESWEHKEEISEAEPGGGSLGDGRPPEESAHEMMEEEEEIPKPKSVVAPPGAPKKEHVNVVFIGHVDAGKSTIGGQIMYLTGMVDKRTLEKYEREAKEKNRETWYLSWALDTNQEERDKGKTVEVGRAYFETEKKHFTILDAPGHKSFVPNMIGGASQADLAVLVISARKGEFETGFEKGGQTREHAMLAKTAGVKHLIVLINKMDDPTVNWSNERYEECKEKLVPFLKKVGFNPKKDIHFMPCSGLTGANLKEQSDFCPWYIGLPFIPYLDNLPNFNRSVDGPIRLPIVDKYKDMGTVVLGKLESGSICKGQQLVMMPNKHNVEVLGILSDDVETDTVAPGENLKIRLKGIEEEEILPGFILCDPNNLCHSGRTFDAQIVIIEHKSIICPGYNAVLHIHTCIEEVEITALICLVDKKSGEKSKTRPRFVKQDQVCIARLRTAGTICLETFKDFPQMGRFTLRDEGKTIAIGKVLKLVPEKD
UniProt Q96SW2, whole entry: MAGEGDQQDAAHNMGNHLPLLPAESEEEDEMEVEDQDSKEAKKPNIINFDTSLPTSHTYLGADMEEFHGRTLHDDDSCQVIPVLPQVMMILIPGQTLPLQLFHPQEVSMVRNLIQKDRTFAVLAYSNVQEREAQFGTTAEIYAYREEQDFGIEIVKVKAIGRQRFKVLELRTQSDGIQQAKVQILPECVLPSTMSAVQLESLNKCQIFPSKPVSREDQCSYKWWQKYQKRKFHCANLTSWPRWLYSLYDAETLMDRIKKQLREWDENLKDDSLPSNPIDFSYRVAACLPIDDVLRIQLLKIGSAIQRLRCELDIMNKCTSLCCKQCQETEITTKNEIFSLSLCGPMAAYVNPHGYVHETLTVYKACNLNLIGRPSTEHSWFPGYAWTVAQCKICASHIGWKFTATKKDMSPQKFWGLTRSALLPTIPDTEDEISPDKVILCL
UniProt Q16531, whole entry partner: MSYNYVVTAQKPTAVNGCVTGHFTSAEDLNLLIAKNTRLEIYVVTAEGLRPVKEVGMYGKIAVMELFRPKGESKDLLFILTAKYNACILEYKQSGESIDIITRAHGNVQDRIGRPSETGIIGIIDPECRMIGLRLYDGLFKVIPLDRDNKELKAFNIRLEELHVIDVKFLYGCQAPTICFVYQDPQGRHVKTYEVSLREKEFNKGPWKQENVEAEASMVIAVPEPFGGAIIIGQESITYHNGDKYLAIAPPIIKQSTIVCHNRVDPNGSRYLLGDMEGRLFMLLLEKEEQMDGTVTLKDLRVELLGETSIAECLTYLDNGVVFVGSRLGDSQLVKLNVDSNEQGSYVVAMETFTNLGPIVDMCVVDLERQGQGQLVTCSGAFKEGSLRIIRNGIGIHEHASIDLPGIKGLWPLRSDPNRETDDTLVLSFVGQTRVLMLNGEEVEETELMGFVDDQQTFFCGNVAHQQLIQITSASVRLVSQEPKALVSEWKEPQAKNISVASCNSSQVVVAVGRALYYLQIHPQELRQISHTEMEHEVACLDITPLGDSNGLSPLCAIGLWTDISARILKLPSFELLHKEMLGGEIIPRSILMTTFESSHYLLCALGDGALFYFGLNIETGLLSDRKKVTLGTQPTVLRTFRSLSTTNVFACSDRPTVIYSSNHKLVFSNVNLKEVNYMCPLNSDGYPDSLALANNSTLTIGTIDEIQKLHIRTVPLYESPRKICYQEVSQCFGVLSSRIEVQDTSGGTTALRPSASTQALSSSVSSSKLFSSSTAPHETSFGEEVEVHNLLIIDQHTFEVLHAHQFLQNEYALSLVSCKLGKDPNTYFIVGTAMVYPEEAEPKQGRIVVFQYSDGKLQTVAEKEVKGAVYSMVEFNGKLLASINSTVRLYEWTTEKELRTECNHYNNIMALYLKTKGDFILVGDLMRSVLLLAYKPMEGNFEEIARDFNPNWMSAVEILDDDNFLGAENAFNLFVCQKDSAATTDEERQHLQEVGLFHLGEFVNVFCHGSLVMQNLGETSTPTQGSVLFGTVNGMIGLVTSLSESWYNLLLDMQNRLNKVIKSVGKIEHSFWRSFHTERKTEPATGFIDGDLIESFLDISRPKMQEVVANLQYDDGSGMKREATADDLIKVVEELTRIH

Columns and labels:
HL60 cells = experiment: HL60 cell killing experiment (CellTiter-Glo cell viability); details: 48 h incubation, CTG luminescence
Protocol: HL60 cell lines were purchased from ATCC (Cat #ATCC® CCL-240™), IMDM media were purchased from ATCC (Cat #ATCC® 30-2005™), FBS was purchased from Gibco (Cat #10091148), celltiter-glo luminescent cell viability assay was purchased from promega (Cat #G7572), and 96-well plates were purchased from corning (Cat #3610).
The effect of compounds on the growth of HL60 cells was determined by measuring cell viability. Firstly, cells in the logarithmic growth phase were collected and centrifuged, and the culture supernatant was discarded. The centrifuged cells were resuspended in a fresh complete medium, and the cell density was adjusted to 5×10^4 cells/mL. The resuspended cells were inoculated into two opaque 96-well cell culture plates at 100 μL of cell suspension per well, and the cell culture plates were incubated in a cell incubator at 37° C. for 4 h. […] After one of the cell plates was cooled to room temperature, 60 μL of CTG reagent was added, and the luminescence values were read on the instrument as G0. […] After 48 h, 60 μL of CTG reagent was added, and the luminescence values were read on the instrument as G3.
According to the corresponding proliferation rate and concentration of each gradient concentration well, a gradient curve of cell proliferation was fitted using XLFit software, and the GI50 values of compounds were calculated.

GSPT1 = GSPT1 (Homo sapiens, UniProt P15170+Q96SW2); experiment: Degradation of GSPT1 by the compounds (HiBiT signal in GSPT1/HEK293 hibit cells); details: 6 h incubation, Nano Glo HiBiT Lytic Detection
Protocol: GSPT1/HEK293 hibit cell lines were constructed by Shanghai BioDuro Co., Ltd., HEK293 cell lines were purchased from ATCC (Cat #ATCC® CRL-1573™), DMEM media were purchased from ATCC (Cat #ATCC® 30-2002™), FBS was purchased from Gibco (Cat #10091148), Nano Glo HiBiT Lytic Detection System was purchased from Promega (Cat #N3040), and 96-well plates were purchased from coming (Cat #3610).
The degradation of GSPT1 by the compounds was determined by measuring the intensity of hibit signals in cells. Firstly, the cells were digested with pancreatin, and the digestion was then terminated with medium. The cells were centrifuged, and the supernatant was discarded. The centrifuged cells were resuspended in a fresh complete medium, and the cell density was adjusted to 2.5×10^4 cells/mL. The resuspended cells were inoculated into an opaque 96-well cell culture plate at 100 μL of cell suspension per well, and the cell culture plate was incubated in a cell incubator at 37° C. overnight. […] After 6 h, 60 μL of Nano Glo HiBiT Lytic Detection System reagent was added and the luminescence values were read on the instrument.
According to the corresponding degradation rate and concentration of each gradient concentration well, a gradient curve of degradation rate was fitted using XLFit software, and the DC50 values of compounds were calculated.

DC50 (GSPT1): < 100 nM
Compound: O=C1CCC(N2Cc3c(OCc4ccnc(C(=O)N[C@H]5CC[C@H](c6nc7cccnc7s6)CC5)c4)cccc3C2=O)C(=O)N1 (some centres unmarked)
GI50 (HL60 cells): < 100 nM
